Measurements published in PMC9904277, “Rational design of Harakiri (HRK)-derived constrained peptides as BCL-xL inhibitors” (Chemical Communications (Cambridge, England), 2023).

Amino acid sequences for entries named in this document (tags omitted). Residues count along the entry.
UniProt Q07820, 172-327: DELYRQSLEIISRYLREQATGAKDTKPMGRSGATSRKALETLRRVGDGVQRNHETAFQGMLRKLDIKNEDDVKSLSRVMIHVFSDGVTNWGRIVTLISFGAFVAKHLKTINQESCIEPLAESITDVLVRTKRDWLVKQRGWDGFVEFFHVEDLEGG

Legend:
MCL-1 [1] = target: T1, MCL-1 (Homo sapiens, UniProt Q07820); settings: IC50 HRK/MCL-1 divided by IC50 HRK/BCL-xL
MCL-1 [2] = target: T1, MCL-1; assay: biochemical

For `CSCC[C@H](NC(=O)[C@@H](NC(=O)[C@H](CCCNC(=N)N)NC(=O)[C@H](CCC(N)=O)NC(=O)[C@H](Cc1c[nH]cn1)NC(=O)[C@H](CC(C)C)NC(=O)[C@H](CCC(=O)O)NC(=O)[C@H](CC(=O)O)NC(=O)CNC(=O)[C@H](CC(C)C)NC(=O)[C@H](C)NC(=O)[C@H](CCCCN)NC(=O)[C@H](CC(C)C)NC(=O)[C@H](CCCNC(=N)N)NC(=O)[C@H](C)NC(=O)[C@H](C)NC(=O)[C@@H](NC(=O)[C@H](CC(C)C)NC(=O)[C@H](CCC(N)=O)NC(=O)[C@H](C)NC(=O)[C@H](C)NC(=O)[C@H](CO)NC(C)=O)[C@@H](C)O)[C@@H](C)O)C(=O)N[C@@H](Cc1c[nH]c2ccccc12)C(N)=O` [HRK-wt, reference compound], the “IC50 ratio MCL-1 : BCL-xL (selectivity index)” value (MCL-1 [1]) was 1.2 and the IC50 (MCL-1 [2]) was 2.7 ± 0.3 µM.
